Binding of CDR-mutated scFvs to a peptide of the spike HR2 region

The measurements come from Engelhart et al. 2022 (doi:10.1038/s41597-022-01779-4) through the FLAb antibody collection.

Target: peptide PDVDLGDISGINAS, taken from heptad repeat 2 (HR2) of SARS-CoV-2 spike.

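Phage display of a naive human antibody library on the peptide gave the parent. The library (AAYL49) carries one to three amino acid substitutions per variant, with no insertions or deletions. The assay is AlphaSeq: two haploid yeast populations carry antibody and antigen on their surface. Binding brings cells together so that they mate, and sequencing counts the barcode pairs among the diploids. Read counts were normalised to the haploid input and turned into Kd by a linear fit to BCL2-family pairs of known affinity, for each replicate. Mating was done three times.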

The variants keep the light chain, the linker and the frameworks of Ab-14 (scFv order VH, a 15-residue (Gly4Ser)3 linker, VL).
VH: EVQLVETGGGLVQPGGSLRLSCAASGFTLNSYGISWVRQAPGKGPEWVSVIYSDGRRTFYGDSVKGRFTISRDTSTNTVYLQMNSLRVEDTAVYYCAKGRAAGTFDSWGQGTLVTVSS
VL: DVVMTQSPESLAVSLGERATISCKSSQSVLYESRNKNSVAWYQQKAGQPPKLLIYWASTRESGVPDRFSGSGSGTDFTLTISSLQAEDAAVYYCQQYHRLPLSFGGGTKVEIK

Variants are written as CDR1, CDR2 and CDR3 of the heavy chain (limits as in the source). Parent: GFTLNSYGIS, VIYSDGRRTFYGDSVK, GRAAGTFDS.
The read-out is the apparent dissociation constant on a log10 scale (nM): the lower, the stronger.
Where no diploid with the target was found in that replicate, the entry reads "n.d.": below detection, most likely a poor binder, though not proof of it.
For reference, the parent read 0.65 as the reference entry and 4.11 (one replicate of three) as a member of this library.
As a blank, each scFv also met three strains without target: over library AAYL49, 15% of these pairings were detected, typically at 4.06 and seldom below 2.83. For each scFv, signals with the empty controls are counted beside the result, with their mean in brackets.

CDR-H1 | CDR-H2 | CDR-H3 | log10 Kd, replicates | empty controls
GFTFNSYGIS | VKYSDGRRTFYGQSVK | GRAAGTFDS | n.d. / n.d. / n.d. | 0/9
GFTLNFYGIS | VINSDGRRTFYGDSVK | MRAAGTFDS | 5.09 / n.d. / 6.15 | 6/9 (4.21)
GFTLNSYGIS | VDDCDGRRTFYGDSVK | GRAAGTFDS | n.d. / n.d. / n.d. | 0/9
GFTLNSYGIS | VIYSDGRRTYYGDSVH | GRAAGTFLS | n.d. / n.d. / n.d. | 1/9 (3.40)
HFTLNSYGIS | NIYSDGRRTFYGDSVK | GRAAGTFHS | n.d. / n.d. / n.d. | 1/9 (3.73)
GFTLNNYGIS | VIYSDGRRTFYGDSVK | GRAAGTFDS | 0.13 / 0.22 / 1.46 | 0/9